According to patent publication US20140221639A1, “RADIOLABELED NUCLEOSIDE ANALOGUE, AND PREPARATION METHOD AND USE THEREOF” (Institute of Nuclear Energy Research Atomic Energy Council, …, priority 2011, published 2014):

Tested on: NG4TL4-WT tumor
Assay: Biodistribution study in tumor-bearing mice
Format: in vivo
Conditions: 80~90 μCi tail vein, FVB/N mice with NG4TL4-WT tumor
Excerpt: […] Tumor and 13 other tissures (blood, heart, lung, liver, stomach, small intestine, large intestine, spleen, pancreas, kidney, bone, marrow, and muscle) were removed, rinsed, weighed, and determined for radioactivity with a γ scintilation counter. Uptake of the radioactive trancers in the tissues (counts per min) was calibrated against decay, normalizedto sample weight, and expressed as percentages of injected dosage per gram of tissue (% ID/g) and aggregation ratio of tumor to blood.

Biodistribution Brain (5 min): 1.51 ± 0.0S | T/B (aggregation ratio of tumor to blood) (5 min): 0.47 | T/M (tumor-muscle aggregation ratio) (5 min): 1.67 | Biodistribution Brain (30 min): 0.50 ± 0.12 % ID/g | T/B (aggregation ratio of tumor to blood) (30 min): 0.73 | T/M (tumor-muscle aggregation ratio) (30 min): 4.21 | Biodistribution Brain (1 h): 0.34 ± 0.07 % ID/g | T/B (aggregation ratio of tumor to blood) (1 h): 1.03 | T/M (tumor-muscle aggregation ratio) (1 h): 4.97 | Biodistribution Brain (2 h): 0.17 ± 0.02 % ID/g | T/B (aggregation ratio of tumor to blood) (2 h): 134 | T/M (tumor-muscle aggregation ratio) (2 h): 6.06 | Biodistribution Brain (4 h): 0.13 ± 0.06 % ID/g | T/B (aggregation ratio of tumor to blood) (4 h): 2.03 | T/M (tumor-muscle aggregation ratio) (4 h): 7.49 | Biodistribution Brain (8 h): 0.03 ± 0.01 % ID/g | T/B (aggregation ratio of tumor to blood) (8 h): 5.17 | T/M (tumor-muscle aggregation ratio) (8 h): 19.91
SMILES: O=c1[nH]c(=O)n([C@H]2C[C@H](O)[C@@H](CO)O2)cc1[131I] [^131I-IUdR, 5-[^124/131I]iodo-2′-deoxyuridine]
